# Yeast mating assay 1: variants of the scFv Ab-14

The target is the same throughout: PDVDLGDISGINAS, from the HR2 region of SARS-CoV-2 spike.

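The parent was found by panning a naive human phage display library on the peptide. Library AAYL50 holds single substitutions and randomly drawn double and triple substitutions in the CDRs. Affinity was read by AlphaSeq, a pooled yeast mating assay with surface-displayed partners. After mating in shaken culture at 30 °C for 16 h, diploids were selected and their barcode pairs sequenced. Read counts were normalised to the haploid input and turned into Kd by a linear fit to BCL2-family pairs of known affinity, for each replicate. There are three technical replicates.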

Ab-14 is the parent antibody, in scFv form: VH, then three GGGGS repeats, then VL. The heavy chain is unchanged in all variants.
VH: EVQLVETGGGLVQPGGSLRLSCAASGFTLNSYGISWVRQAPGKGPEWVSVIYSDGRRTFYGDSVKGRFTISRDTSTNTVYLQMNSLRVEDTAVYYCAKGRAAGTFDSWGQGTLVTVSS
VL: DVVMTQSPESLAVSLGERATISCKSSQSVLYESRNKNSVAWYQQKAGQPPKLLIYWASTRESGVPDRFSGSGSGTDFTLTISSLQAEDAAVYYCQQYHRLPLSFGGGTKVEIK

Variants are written as CDR1, CDR2 and CDR3 of the light chain (limits as in the source). Parent: KSSQSVLYESRNKNSVA, WASTRES, QQYHRLPLS.
The read-out is the apparent dissociation constant on a log10 scale (nM): the lower, the stronger.
The mean shown is taken over the replicates in which the pair was detected.
"ND" marks a missing value. The strain was present, yet no cells mated with the target were sequenced in that replicate, which points to weak or no binding.

CDR-L1,CDR-L2,CDR-L3,log10 Kd (nM) by replicate,"log10 Kd (nM), mean",empty controls
KSSQCVLYESRNKNSVA,WASTRES,QQYLRLPLS,2.29 2.04 2.21,2.18,2/9 (4.10)
KSSQSVLYEKRNKNSVA,WSSTRES,QQEHRLPLS,ND 3.29 ND,3.29,2/9 (4.29)
KSIQSVLYESRNKNSVA,WASTRES,QQYHMLPLS,3.47 ND 3.34,3.41,0/9
KKAQSVLYESRNKNSVA,WASTEES,QQYHRLPLS,ND ND ND,ND,1/9 (3.21)
KSSQSVLYESRNKNSGA,WFSTRES,QPYHRLPLS,ND ND ND,ND,1/9 (4.04)
KKSQSVLYESRNKNSVA,WASTRES,QQKHRLSLS,3.13 ND 4.81,3.97,0/9
KSSQMVLYESRNKNSSA,WESTRES,QQYHRLPLS,ND 3.95 ND,3.95,1/9 (4.08)
KSSQSVLYEGRNKNSVA,WASTRES,QQYHRYPLF,0.52 0.81 0.61,0.64,1/9 (2.39)
KSSQSVLYESRNKTSVA,FASTRES,QQYHRLPLS,2.18 2.56 2.24,2.33,2/9 (4.45)
KSSQSVLDESRNKNSVT,WASTRES,QQYHRGPLS,ND ND ND,ND,0/9
KSSQSVLYESRNKNSVA,TASTRES,QQYHRLNLG,0.40 0.64 0.42,0.49,1/9 (3.44)
KSSGSVLYESRHKNPVA,WASTRES,QQYHRLPLS,1.91 1.70 2.05,1.88,1/9 (3.71)
HSSQSVLYESRKKNSVA,WASTRES,QQYMRLPLS,0.73 1.04 1.17,0.98,0/9
KSSQSVLYESRNKNSSA,WASTWES,QQYHRLRLS,ND ND ND,ND,1/9 (4.26)
KSSQSSLYEDRNKNSVA,WISTRES,QQYHRLPLS,4.04 3.86 4.00,3.97,1/9 (5.96)
KHSQIVLYESRNKNSVA,WASTREY,QQYHRLPLS,ND ND ND,ND,1/9 (4.04)
KRSQSVLYESCNKSSVA,WASTRES,QQYHRLPLS,1.61 1.87 1.91,1.80,6/9 (4.58)
KSSQSVLYRSRNKNSVA,WASTRES,QQYHILPLS,3.29 2.48 3.50,3.09,0/9
ASSQQVLYESRNKNLVA,WASTRES,QQYHRLPLS,4.76 4.07 ND,4.41,5/9 (4.65)
KSSQSVLYESRGKNSVI,WASTRKS,QQYHRLPLS,ND ND ND,ND,0/9
VSSQPVLYESRNKNSVA,WASTRES,QQYHRLPTS,2.39 2.23 2.24,2.29,2/9 (3.55)
KSSQSVLYESRNKNCVA,WASTRED,QQYHRLPLP,ND ND ND,ND,0/9
KSSQSVLHESRNKDSVA,WASTRES,QQYHRLPLL,3.26 ND ND,3.26,1/9 (4.70)
KSSQSVLYESRNKYSVA,TASTRYS,QQYHRLPLS,ND 4.64 ND,4.64,1/9 (4.17)
KSSQSVLYESRNGNSVA,WASIRES,QQYHRLSLS,1.19 0.85 1.06,1.03,0/9
KSSQSVLYWSRNKNSVA,WAFTRES,QQYHRLPLS,ND ND ND,ND,0/9
KSSQSVLYESRNKNSVA,WGNTRES,QQYIRLPLS,0.21 0.45 0.27,0.31,2/9 (4.54)
KSSQSVKYESRNKNVVA,WASTRES,QQYHRLPLS,ND 2.83 ND,2.83,0/9
VSSQYVLYESRNKNSVA,WASTRED,QQYHRLPLS,2.53 2.41 2.24,2.39,1/9 (4.06)
KSSQSVLYWKRYKNSVA,WASTRES,QQYHRLPLS,ND ND ND,ND,0/9
KSSQSVLDESENKNSVA,WASTRES,QQYDRLPLS,ND 4.04 2.97,3.51,1/9 (4.09)
KSSQSVLYNSRNKNSVQ,WASTRES,QQYHRLPKS,ND 3.56 ND,3.56,2/9 (4.31)
KSSQSVLYSSRNKNSQA,WASCRES,QQYHRLPLS,ND ND ND,ND,0/9
KSSQSVLYESRNKVSVA,WASTRHS,QQYHVLPLS,6.10 3.22 4.67,4.67,6/9 (4.03)
KSSQSVLMESRNKNSKA,WASGRES,QQYHRLPLS,ND ND ND,ND,0/9
VSHQSVLYESRNKNSVA,WASRRES,QQYHRLPLS,ND ND ND,ND,0/9
KSEQSVLHETRNKNSVA,WASTRES,QQYHRLPLS,2.75 2.51 2.75,2.67,3/9 (4.13)
KSSQSVLYKSRNKNSIA,WASPRES,QQYHRLPLS,ND 4.20 6.09,5.15,4/9 (5.43)
KSSQSVLYQSRNKNSVA,WASTRES,QQYHRVVLS,1.64 1.59 1.53,1.59,3/9 (3.62)
KSSQSVLEESRNKNSVA,PASTKES,QQYHRLPLS,ND ND ND,ND,0/9
KSSQSCLYESRNKNSVQ,WASTRES,QQYHELPLS,ND ND ND,ND,1/9 (2.19)
KSSQSVLYESRNKNSVA,WASTRTS,QQYHRLPLW,5.71 ND ND,5.71,5/9 (3.98)
KFMQSTLYESRNKNSVA,WASTRES,QQYHRLPLS,0.02 0.31 0.18,0.17,1/9 (5.50)
KSSQSVLIESRNKNSVA,WASTRGS,QQYQRLPLS,1.28 1.50 1.25,1.34,2/9 (4.18)
KSSQSVLYEARNKNSLA,WASTRPS,QQYHRLPLS,ND ND ND,ND,0/9

The first 7 variants above that were never detected:

| CDR-L1 | CDR-L2 | CDR-L3 | log10 Kd (nM) by replicate | log10 Kd (nM), mean | empty controls |
|---|---|---|---|---|---|
| KKAQSVLYESRNKNSVA | WASTEES | QQYHRLPLS | ND ND ND | ND | 1/9 (3.21) |
| KSSQSVLYESRNKNSGA | WFSTRES | QPYHRLPLS | ND ND ND | ND | 1/9 (4.04) |
| KSSQSVLDESRNKNSVT | WASTRES | QQYHRGPLS | ND ND ND | ND | 0/9 |
| KSSQSVLYESRNKNSSA | WASTWES | QQYHRLRLS | ND ND ND | ND | 1/9 (4.26) |
| KHSQIVLYESRNKNSVA | WASTREY | QQYHRLPLS | ND ND ND | ND | 1/9 (4.04) |
| KSSQSVLYESRGKNSVI | WASTRKS | QQYHRLPLS | ND ND ND | ND | 0/9 |
| KSSQSVLYESRNKNCVA | WASTRED | QQYHRLPLP | ND ND ND | ND | 0/9 |

For reference, the parent read 0.65 as the reference entry and 1.68 as a member of this library.
Empty control strains, which show no peptide, gave a signal in 18% of pairings with library AAYL50; the median was 4.19 and 95% of these signals were weaker than 2.99. No background was subtracted. The control count says in how many pairings with the empty strains this scFv gave a signal, with their mean in brackets.

Values reported by Engelhart et al. 2022, doi:10.1038/s41597-022-01779-4 (FLAb copy).